Target: Recombinant MAPKAPK2 (Homo sapiens, UniProt P49137)
Test: Determination of MK-2 IC50 (HSP-peptide phosphorylation, anion exchange resin capture assay)
Type: biochemical
Details: MK-2 Avg. IC50, Table I, aminocyanopyridine MK-2 inhibitors

Amino acid sequences for entries named in this document (tags omitted).
UniProt P49137, whole entry, species assumed: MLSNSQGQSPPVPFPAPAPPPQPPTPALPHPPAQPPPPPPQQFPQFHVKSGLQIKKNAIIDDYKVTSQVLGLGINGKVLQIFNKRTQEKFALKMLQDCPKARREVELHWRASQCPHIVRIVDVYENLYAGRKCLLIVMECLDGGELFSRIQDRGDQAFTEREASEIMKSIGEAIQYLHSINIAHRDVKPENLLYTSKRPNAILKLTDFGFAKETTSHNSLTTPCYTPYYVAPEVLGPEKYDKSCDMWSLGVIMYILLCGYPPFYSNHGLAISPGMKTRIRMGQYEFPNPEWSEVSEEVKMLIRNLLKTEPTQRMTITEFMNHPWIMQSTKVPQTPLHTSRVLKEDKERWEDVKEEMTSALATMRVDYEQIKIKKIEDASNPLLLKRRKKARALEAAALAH

IC50: 77.9 µM
SMILES: N#Cc1c(-c2ccco2)cc(-c2cccc(O)c2)nc1N [Example 99]

Source: patent US20040127519A1 (published 2004)
